{
  "source": "patent US11702404B2",
  "about": "“GLP-1R modulating compounds” (priority 2019, dated 2023)",
  "test": "Microsomal stability, human liver microsomes (predicted hepatic clearance)",
  "conditions": "predicted from in vitro microsomal stability data",
  "data": [
    {"smiles": "N#Cc1ccc(COc2cccc(-c3ccc(Cc4nc5ccc(C(=O)O)cc5n4C[C@@H]4CCO4)cc3)n2)c(F)c1", "note": "[Example 634]", "values": [
      {"measurement": "Predicted Hepatic Clearance (Pred. Cl.)", "result": 5.5, "unit": "mL/min/kg"}
    ]}
  ]
}
